From PubChem BioAssay AID651725 (National Center for Advancing Translational Sciences (NCATS), 2012) come the findings set out here.

Amino acid sequences for entries named in this document (tags omitted).
UniProt Q15475, whole entry: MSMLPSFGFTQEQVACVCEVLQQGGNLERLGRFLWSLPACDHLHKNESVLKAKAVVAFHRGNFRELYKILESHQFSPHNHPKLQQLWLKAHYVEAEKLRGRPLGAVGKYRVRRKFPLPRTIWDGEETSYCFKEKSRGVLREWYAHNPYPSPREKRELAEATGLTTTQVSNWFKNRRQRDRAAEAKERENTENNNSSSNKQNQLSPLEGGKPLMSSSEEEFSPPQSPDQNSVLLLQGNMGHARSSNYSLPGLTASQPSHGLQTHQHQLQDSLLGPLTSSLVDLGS

This is a selection; strong and weak results do not stand in their true shares. Activity calls are given as the source filed them. No stated cut-off is given here; in the data, active means activity change below about -65%; inconclusive means mostly about -30% to -63%; inactive means weaker than that.
On the % scale 0 is the no-effect control and ±100 the full control effect.

The target in this assay is Homeobox protein SIX1 (Homo sapiens) + Protein phosphatase EYA2 (Homo sapiens) (UniProt Q15475+O00167). Put plainly: qHTS Assay for Inhibitors of the Six1/Eya2 Interaction. The conditions noted are these: AlphaScreen GST-Six1/His-Eya2 binding, biochemical; stronger effect = lower value. From the text:
Its expression is low or undetectable in normal adult breast tissue but the gene is over-expressed in 50% of primary breast tumors and 90% of metastatic lesions. […] Similar to Six1, Eya2 is also not expressed in most normal adult tissues, but is reexpressed in cancers. The Six1-Eya interaction is essential for proliferation during embryonic development, and both Six1 and Eya2 have been independently implicated in the same types of cancer. Because Six1 and Eya2 are embryonic genes with little expression in adult tissues, inhibitors of their expression/activity are likely to have limited side effects. Our goal is to identify inhibitors of the Six1/Eya interaction for potential cancer therapy. To this end, we have developed a homogenous AlphaScreen assay targeting the Six1/Eya interaction. We performed a large scale HTS of the Molecular Libraries Small Molecule Repository (MLSMR) to identify inhibitors of the Six1/Eya interaction as potential anti-cancer therapeutics. Compounds identified can also be used as chemical probes to better understand the biological functions of Six1 and Eya. […]
The first step of the 5 uL AlphaScreen assay is to dispense assay buffer (50 mM Tris, pH 8.0, 300 mM NaCl, 0.05% BSA, 0.02% Tween 20, 1 mM TCEP) into a Greiner 1536 white solid bottom microtiter plate (789175-F). […] The plate is read using a Perkin Elmer Envision using an AlphaScreen protocol.
On to `Nc1ccccc1[As](=O)(O)c1ccccc1`, for which the activity change is inactive: -1.28%.
